target: Poly [ADP-ribose] polymerase 1 (Homo sapiens, UniProt P09874); conditions: A549

Sequences of proteins named here, by UniProt entry; tags and fusion partners are left off.
UniProt P09874, whole entry: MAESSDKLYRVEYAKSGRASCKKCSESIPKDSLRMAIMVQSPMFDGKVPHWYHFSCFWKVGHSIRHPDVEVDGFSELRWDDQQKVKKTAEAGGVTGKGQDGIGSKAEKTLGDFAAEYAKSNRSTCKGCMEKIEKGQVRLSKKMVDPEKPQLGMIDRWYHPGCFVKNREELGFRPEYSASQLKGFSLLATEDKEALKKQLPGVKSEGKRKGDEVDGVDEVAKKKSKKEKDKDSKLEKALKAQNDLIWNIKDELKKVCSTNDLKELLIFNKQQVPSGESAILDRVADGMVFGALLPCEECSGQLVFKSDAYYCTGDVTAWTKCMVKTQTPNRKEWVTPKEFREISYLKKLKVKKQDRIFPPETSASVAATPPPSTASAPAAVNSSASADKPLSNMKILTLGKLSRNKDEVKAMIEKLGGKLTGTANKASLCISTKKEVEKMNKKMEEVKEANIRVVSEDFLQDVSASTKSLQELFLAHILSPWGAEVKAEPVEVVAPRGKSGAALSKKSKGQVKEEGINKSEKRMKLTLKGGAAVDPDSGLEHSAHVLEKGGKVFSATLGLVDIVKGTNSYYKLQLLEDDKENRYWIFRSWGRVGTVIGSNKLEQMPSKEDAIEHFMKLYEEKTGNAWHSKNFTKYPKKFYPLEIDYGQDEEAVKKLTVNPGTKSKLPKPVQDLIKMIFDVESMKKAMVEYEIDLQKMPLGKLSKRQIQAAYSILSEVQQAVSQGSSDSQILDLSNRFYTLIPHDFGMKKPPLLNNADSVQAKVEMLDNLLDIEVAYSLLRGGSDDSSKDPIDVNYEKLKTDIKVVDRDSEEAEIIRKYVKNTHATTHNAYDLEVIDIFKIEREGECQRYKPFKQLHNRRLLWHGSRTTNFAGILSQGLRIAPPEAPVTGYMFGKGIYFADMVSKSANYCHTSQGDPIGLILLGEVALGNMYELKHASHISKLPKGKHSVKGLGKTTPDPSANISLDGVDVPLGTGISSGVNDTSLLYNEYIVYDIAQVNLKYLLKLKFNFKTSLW

Going from C[C@]1(c2nc3c(C(N)=O)c(F)ccc3[nH]2)CCCN1 to CN1CCC[C@@]1(C)c1nc2c(C(N)=O)c(F)ccc2[nH]1, the PF50 rises from 0.9 to 1.

Compared with NC(=O)c1c(F)ccc2[nH]c(C3CCNCC3)nc12, CCCN1CCC(c2nc3c(C(N)=O)c(F)ccc3[nH]2)CC1 is higher in PF50: 0.8 for the first, 1.9 for the second.

Going from NC(=O)c1c(F)ccc2[nH]c(-c3ccc(N4CCNCC4)cc3)nc12 to NC(=O)c1c(F)ccc2[nH]c(-c3ccc(N4CCOCC4)cc3)nc12, the PF50 rises from 1.6 to 2.3.
